The entries are a selection whose mix differs from that of the whole data set. Entries with a potency or affinity are not part of this list. Active and inactive are the calls of the source.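 How the source made its calls: active means compounds whose percent cytotoxicity in the single-dose primary screen, scaled between solvent and toxic-drug controls, exceeds 50; inactive means the rest.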

A short description of this experiment: viability loss of HPDE-C7K cells – cell-based, fluorescence, HTS, primary screen (AID 431).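 Further: 0% = DMSO solvent wells and 100% = doxorubicin-treated wells.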 The settings on record: HPDE-C7K KRASV12 cells, Alamar Blue viability, 48 h; at 10 µM; hits give high values. A general note: Alamar Blue is a resazurin reagent that responds to reducing activity.
As for `Cc1nc2ccc3ccccc3c2s1.O=[N+]([O-])c1cc([N+](=O)[O-])c(O)c([N+](=O)[O-])c1`, the cytotoxicity is inactive: 0%.

In the case of `Cc1ccc(C)c(NP(C)(=O)Oc2ccccc2)c1` (configuration not stated), the cytotoxicity was inactive: -9.5%.

For the compound `Cc1ccc(NP(C)(=O)Oc2ccccc2)c(C)c1` (configuration not stated), the cytotoxicity was inactive: -12.7%.

`CP(=S)(Nn1cnnc1)Oc1ccccc1` (configuration not stated): the cytotoxicity is inactive: 4.7%.

Regarding `CP(=O)(NC(=O)Nc1ccccc1)Oc1ccccc1` (configuration not stated), the cytotoxicity was inactive: -19.5%.

On to `CCOP(C)(=S)SCC(=O)NC(C)C(=O)O` (configuration not stated), for which the cytotoxicity is inactive: -7.9%.

For `COc1ccccc1OP(C)(=O)Nc1c(C)n(C)n(-c2ccccc2)c1=O` (configuration not stated), the cytotoxicity is inactive: -21.4%.

In the case of `CP(=O)(Oc1ccccc1)N1CCOC1=O` (configuration not stated), the cytotoxicity was inactive: 11.6%.

Consider `CCN(CC)CC(O)COC(=O)C(O)(c1ccccc1)C1CCCCC1` (configuration not stated), for which the cytotoxicity was inactive: 8.8%.

As for `COc1ccccc1OP(C)(=O)Nc1ccc(C)c(C)c1` (configuration not stated), the cytotoxicity is inactive: 2.4%.

On to `Cc1nc2ccc3ccccc3c2o1.O=[N+]([O-])c1cc([N+](=O)[O-])c(O)c([N+](=O)[O-])c1`, for which the cytotoxicity is inactive: 1.8%.

Take `CP(=O)(Nc1ccccn1)Oc1ccccc1` (configuration not stated): the cytotoxicity is inactive: -3.1%.

Turning to `CP(=O)(Nc1ccccc1F)Oc1ccccc1` (configuration not stated), the cytotoxicity is inactive: -2.6%.

With `CN(C)CCOC(=O)C(O)(c1ccccc1)C1CCCCC1` (configuration not stated), the cytotoxicity is inactive: -0.3%.

Turning to `CCOP(C)(=S)SCC(=O)NC(C)(CC)C(=O)O` (configuration not stated), the cytotoxicity is inactive: -20.8%.

Regarding `Cc1ccccc1NP(C)(=O)Nc1ccccc1C`, the cytotoxicity was inactive: -8.4%.

`CP(=O)(Nc1ccc2c(c1)OCCO2)Oc1ccccc1` (configuration not stated): the cytotoxicity was inactive: 14.2%.
